{"source": "patent US20250270224A1", "about": "“POLYCYCLIC POLY(ADP-RIBOSE) POLYMERASE SELECTIVE INHIBITOR” (XUANZHU BIOPHARMACEUTICAL CO., LTD., priority 2022, published 2025)", "tested_on": "MDA-MB-436 cells", "assay": "In-vitro cytological inhibitory activity (CelltiterGlo assay), 7 days culture", "assay_type": "cell-based", "details": "BRCA1 mutated human breast cancer cells, CTG", "experimental": "The MDA-MB-436 cells were adherent cells, and the culture solution was DMEM+10% FBS+1% ITS-G+16 μg/ml glutathione.\nCells in the logarithmic growth phase were collected and counted by a […]. The cell viability was detected by a trypan blue exclusion method, and the cell viability was kept over 90%. The cell concentration was adjusted to be in a proper range, and 90 μL of cell suspension was added into a 96-well plate respectively.\nThe stock solutions of the test compounds were diluted by 10 times from 10 mM to 1 mM with DMSO, and then continuously gradiently diluted by 3 times with DMSO into a total of 9 concentrations.\n10 μL of compound working stock solution was added into each well in a 96-well plate inoculated with cells (diluted by 10 times, the final concentration of DMSO was 0.1%). […]\nBlank control: the 96-well plate was detected and read 0 hour after the addition. […]\nA CTG reagent was thawed and the 96-well plate was equilibrated to room temperature for 30 minutes, 60 μL of reagent (Celltiter Glo assay kit) was added into each well and shaken by a shaker for 2 minutes to mix uniformly (in the dark), and the mixture was incubated at room temperature for 20 minutes (in the dark). Light signal values were read by a multi-functional microplate reader.", "data": [{"molecule": "CNC(=O)c1ccc(N2CCN(Cc3cc4ccn5c4c(c3F)NC(=O)C5C)CC2)c(F)n1", "note": "(stereo not shown) [Compound 3]", "values": [{"measurement": "IC50", "result": 13.3, "unit": "nM"}]}]}
